Sequences of proteins named here, by UniProt entry; tags and fusion partners are left off. Residues count along the entry.
UniProt Q7NY09, 36-276 limits assumed: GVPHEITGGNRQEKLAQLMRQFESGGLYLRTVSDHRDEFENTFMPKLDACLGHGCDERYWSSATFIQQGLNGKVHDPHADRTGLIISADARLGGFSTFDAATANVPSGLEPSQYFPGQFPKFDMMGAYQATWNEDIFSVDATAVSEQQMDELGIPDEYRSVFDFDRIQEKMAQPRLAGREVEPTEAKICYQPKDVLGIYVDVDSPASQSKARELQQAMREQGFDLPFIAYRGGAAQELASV

In publication PMC10810742, “Crystal structure of bacterial ubiquitin ADP-ribosyltransferase CteC reveals a substrate-recruiting insertion” (The Journal of Biological Chemistry, 2023):

Target: CteC_(36–276) (Chromobacterium violaceum) (UniProt Q7NY09)
Test: ITC; MicroCal PEAQ-ITC; 480 μM CteC construct titrated with 4.8 mM Ub; 50 mM Hepes pH 7.3, 100 mM NaCl

With “ubiquitin (from UniProt P0CG48 1-76) (natural protein)” the Kd was 119 µM.
